Earlier results in patent publication US8242178B2, “Use of cannabidiol in the treatment of autoimmune hepatitis” (University of South Carolina, priority 2007, dated 2012).

Sequences of proteins named here, by UniProt entry; tags and fusion partners are left off.
UniProt P34972, whole entry: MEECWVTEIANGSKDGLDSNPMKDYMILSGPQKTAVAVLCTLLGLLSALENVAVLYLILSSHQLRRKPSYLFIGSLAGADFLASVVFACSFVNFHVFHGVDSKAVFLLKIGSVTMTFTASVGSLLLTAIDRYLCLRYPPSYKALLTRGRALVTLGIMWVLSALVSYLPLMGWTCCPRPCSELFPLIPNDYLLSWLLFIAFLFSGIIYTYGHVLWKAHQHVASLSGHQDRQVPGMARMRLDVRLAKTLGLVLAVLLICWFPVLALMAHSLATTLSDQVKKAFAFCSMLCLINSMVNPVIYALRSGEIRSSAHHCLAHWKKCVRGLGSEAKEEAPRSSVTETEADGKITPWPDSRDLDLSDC

Target: CB2 (Homo sapiens, UniProt P34972)
Settings: read-out: affinity for CB2 receptors (Ki); found by other investigators; cited from earlier work

For `C=C(C)[C@@H]1CCC(C)=C[C@H]1c1c(O)cc(CCCCC)cc1O` [CBD, cannabidiol], the Ki is given as 96.3 nM.
